Experimental data as given in patent US20240239761A1, “BICYCLIC PHENOL COMPOUNDS AND USE THEREOF” (MEDSHINE DISCOVERY INC., priority 2021, published 2024).

Protein sequences, listed by entry. Tags and fused reporters are not part of them. Chains listed by the source or under a name are the forms on record and can include a tag or linker. Residues count along the entry.
UniProt P10827, 1-370 with tags or gaps limits assumed: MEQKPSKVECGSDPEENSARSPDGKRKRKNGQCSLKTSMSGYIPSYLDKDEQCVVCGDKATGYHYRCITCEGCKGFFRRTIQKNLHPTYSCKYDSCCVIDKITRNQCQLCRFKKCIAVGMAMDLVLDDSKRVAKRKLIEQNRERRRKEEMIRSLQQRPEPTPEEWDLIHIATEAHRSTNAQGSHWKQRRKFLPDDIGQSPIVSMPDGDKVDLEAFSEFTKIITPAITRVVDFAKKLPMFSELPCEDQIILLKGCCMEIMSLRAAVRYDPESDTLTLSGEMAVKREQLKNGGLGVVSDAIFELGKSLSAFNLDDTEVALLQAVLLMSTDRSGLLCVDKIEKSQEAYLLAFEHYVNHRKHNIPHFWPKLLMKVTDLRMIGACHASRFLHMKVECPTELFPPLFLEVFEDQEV
UniProt P10828, whole entry: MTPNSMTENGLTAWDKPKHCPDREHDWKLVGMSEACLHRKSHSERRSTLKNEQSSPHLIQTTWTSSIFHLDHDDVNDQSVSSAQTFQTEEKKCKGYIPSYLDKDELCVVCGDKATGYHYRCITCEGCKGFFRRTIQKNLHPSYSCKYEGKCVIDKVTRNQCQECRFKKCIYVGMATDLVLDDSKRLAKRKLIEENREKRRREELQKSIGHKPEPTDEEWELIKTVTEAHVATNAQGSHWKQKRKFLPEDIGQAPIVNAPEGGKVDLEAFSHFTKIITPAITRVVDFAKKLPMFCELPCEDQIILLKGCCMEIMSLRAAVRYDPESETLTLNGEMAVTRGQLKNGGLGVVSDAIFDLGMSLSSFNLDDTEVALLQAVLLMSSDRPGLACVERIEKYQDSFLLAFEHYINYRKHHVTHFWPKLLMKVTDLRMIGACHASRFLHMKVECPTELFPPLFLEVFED

What was measured:
THRα = THRα (Homo sapiens (Human), UniProt P10827); assay: GeneBLAzer TR alpha-UAS-bla HEK 293T cell-based agonist assay; conditions: TR alpha-UAS-bla HEK 293T cells; for THRα maximum agnostic capability: T3 as positive control; for EC50: read-out: THRα EC50, 22 hours incubation
THRβ = THRβ (Homo sapiens, UniProt P10828); assay: GeneBLAzer TR beta-UAS-bla HEK 293T cell-based agonist assay; conditions: TR beta-UAS-bla HEK 293T cells; for THRß maximum agnostic capability: T3 as positive control; for EC50: read-out: THRß EC50, 16 hours incubation

SMILES | THRα maximum agnostic capability (THRα) [%] | EC50 (THRα) [nM] | THRß maximum agnostic capability (THRβ) [%] | EC50 (THRβ) [nM]
COC1CCCc2c(Cc3c(C)cc(NC(=O)c4noc(=O)[nH]4)cc3C)ccc(O)c21 (single isomer, unassigned) [WX009] | 83 | 773 | 93 | 154
CCOC1CCCc2c(Cc3c(C)cc(NC(=O)c4noc(=O)[nH]4)cc3C)ccc(O)c21 (single isomer, unassigned) [WX010] | 90 | 93 | 94 | 9.95
Cc1cc(NC(=O)c2noc(=O)[nH]2)cc(C)c1Cc1ccc(O)c2c1CCCC2C (single isomer, unassigned) [WX004] | 96 | 76.2 | 94 | 9.07
CCOC1CCCc2c(Cc3c(C)cc(NC(=O)c4noc(=O)[nH]4)cc3C)ccc(O)c21 (single isomer, unassigned) [WX011] | 73 | 65.5 | 97 | 13
Cc1cc(NC(=O)c2noc(=O)[nH]2)cc(C)c1Cc1ccc(O)c2c1CCCC2C (single isomer, unassigned) [WX003] | 88 | 149 | 93 | 27.6
COC1CCCc2c(Cc3c(C)cc(NC(=O)c4noc(=O)[nH]4)cc3C)ccc(O)c21 (single isomer, unassigned) [WX008] | 79 | 403 | 94 | 119
